The values that follow come from patent US20090054504A1 (KNOPP NEUROSCIENCES, INC., priority 2007, published 2009).

Data set [1] can be described thus: clinical. The following applies: human, oral, t½, Fasted, mean ± SD.
Data set [2] is described as follows: clinical. The following applies: human, oral.

For `CCCN[C@@H]1CCc2nc(N)sc2C1` [RPPX, (6R)-4,5,6,7-tetrahydro-N6-propyl-2,6-benzothiazole-diamine], the half-life in the data set “clinical [1]” (blood, 50 mg, CL002, 50 mg Q12H (Day 1)) was 6.34 ± 1.31 h; in “clinical [1]” (blood, 50 mg, CL002, 50 mg Q12H (Day 7)) it was 6.96 ± 1.3 h; in “clinical [1]” (blood, 100 mg, CL002, 100 mg Q12H (Day 1)) it was 6.57 ± 0.88 h; in the data set “clinical [1]” (in vivo, 100 mg, CL002, 100 mg Q12H (Day 7)), 7.88 ± 1.19 h; in “clinical [2]” (blood, 150 mg), 6.96 ± 0.56 h; in the data set “clinical [2]” (blood, 300 mg), 6.4 ± 1.73 h. The molecule also showed a half-life in “clinical [2]” (in vivo, 50 mg) of 6.65 ± 1.07 h.

By half-life is commonly meant the time needed for the level to fall by half in the phase considered. High values mean slow loss, low ones fast loss.
